Results from article PMC3602246 (BMC Pharmacology & Toxicology, 2013).
pIC50, pKi: −log10 of the molar value.

Protein sequences, listed by entry. Tags and fused reporters are not part of them. Lines headed by an entry give the natural chain unless they say otherwise; changes in a name come on top.
UniProt P35372, whole entry, looked up: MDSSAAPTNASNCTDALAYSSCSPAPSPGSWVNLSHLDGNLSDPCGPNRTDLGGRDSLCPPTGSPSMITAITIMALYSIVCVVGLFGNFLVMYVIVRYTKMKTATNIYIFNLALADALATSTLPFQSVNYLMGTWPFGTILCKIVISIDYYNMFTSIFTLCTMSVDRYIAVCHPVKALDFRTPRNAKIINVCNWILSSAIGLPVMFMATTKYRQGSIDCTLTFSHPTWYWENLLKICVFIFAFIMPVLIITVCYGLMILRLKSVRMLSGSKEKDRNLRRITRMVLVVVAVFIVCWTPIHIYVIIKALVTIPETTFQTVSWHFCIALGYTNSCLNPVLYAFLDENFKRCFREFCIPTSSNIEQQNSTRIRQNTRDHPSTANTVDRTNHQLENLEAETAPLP
UniProt P41143, whole entry, looked up: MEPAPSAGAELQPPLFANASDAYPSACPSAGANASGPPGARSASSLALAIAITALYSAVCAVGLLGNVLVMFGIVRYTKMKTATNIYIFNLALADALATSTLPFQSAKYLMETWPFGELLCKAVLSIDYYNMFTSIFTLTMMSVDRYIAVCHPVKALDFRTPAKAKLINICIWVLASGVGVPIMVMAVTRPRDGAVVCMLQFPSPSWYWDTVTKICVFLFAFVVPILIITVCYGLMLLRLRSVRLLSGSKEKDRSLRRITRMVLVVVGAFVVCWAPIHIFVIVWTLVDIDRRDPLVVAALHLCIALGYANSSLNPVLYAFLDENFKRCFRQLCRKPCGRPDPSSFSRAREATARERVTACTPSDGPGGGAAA
UniProt P41145: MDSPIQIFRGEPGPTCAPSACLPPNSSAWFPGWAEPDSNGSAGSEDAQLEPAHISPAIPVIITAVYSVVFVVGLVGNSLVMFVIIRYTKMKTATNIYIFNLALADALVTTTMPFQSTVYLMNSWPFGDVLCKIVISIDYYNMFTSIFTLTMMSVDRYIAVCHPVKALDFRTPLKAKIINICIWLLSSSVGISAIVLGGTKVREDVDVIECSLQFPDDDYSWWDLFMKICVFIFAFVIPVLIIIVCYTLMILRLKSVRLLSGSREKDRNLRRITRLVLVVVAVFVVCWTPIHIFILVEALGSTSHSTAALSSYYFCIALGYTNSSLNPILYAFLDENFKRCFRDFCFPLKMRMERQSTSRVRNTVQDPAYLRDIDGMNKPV

How the values were obtained:
DOR = conditions: read-out: IC50, affinity binding to the DOR; literature values marked (IC50); ref Reference column of Table S2; cited from earlier work
KOR = conditions: ref References column of Table S3, cited from earlier work; for pKi: read-out: Ki, affinity binding to the KOR, literature values, one reference per ligand
[1] = biological target: human mu opioid receptor (MOR1) (Homo sapiens, UniProt P35372); test: DMR agonist assay in HEK-MOR cells; assay type: cell-based; conditions: ligand 10 μM
[2] = biological target: T1, human delta opioid receptor (Homo sapiens, UniProt P41143); test: DMR agonist assay in HEK-DOR cells; conditions: for DMR agonist activity classification, DOR: ligand 10 μM
[3] = biological target: human kappa opioid receptor (Homo sapiens, UniProt P41145); test: DMR agonist assay in HEK-KOR cells; assay type: cell-based; conditions: ligand 10 μM
[4] = biological target: T1, human delta opioid receptor; test: iPOT DMR profiling of HEK-DOR cells pretreated with probe molecules; assay type: cell-based; conditions: ligand 10 μM
MOR = conditions: read-out: Ki, affinity binding to the MOR; literature values, one reference per ligand; ref Reference column of Table S1; cited from earlier work

Molecule | pIC50 (DOR) | pIC50 (KOR; read-out: IC50, affinity binding to the KOR, literature values marked (IC50)) | DMR agonist activity classification, MOR [1] | DMR agonist activity classification, DOR [2] | DMR agonist activity classification, KOR [3] | pKi (KOR) | maximal DMR amplitude ([2]; monophasic dose response, n = 16) | effect of LY294002 pretreatment on ligand DMR ([4]; 10 μM LY294002, 1 hr) | effect of SB202190 pretreatment on ligand DMR ([4]; 10 μM SB202190, 1 hr) | effect of SP600125 pretreatment on ligand DMR ([4]; 10 μM SP600125, 1 hr) | effect of U0126 pretreatment on ligand DMR ([4]; 10 μM U0126, 1 hr) | pKi (MOR)
CN(C(=O)Cc1ccccc1)[C@H](CN1CCCC1)c1ccccc1 | < 6.00 | 8.85 | – | – | – | – | – | – | – | – | – | –
CN(C(=O)Cc1ccccc1)[C@H](CN1CCCC1)c1ccccc1.Cl | – | – | Partial agonist (a ligand whose DMR amplitude was smaller the mean-2σ of its positive control and greater than 50 pm was considered to be a partial agonist) | Partial agonist (a ligand whose DMR amplitude was smaller the mean-2σ of its positive control and greater than 50 pm was considered to be a partial agonist) | – | – | – | – | – | – | – | –
CN(C(=O)Cc1ccc(Cl)c(Cl)c1)[C@H](CN1CCCC1)c1ccccc1 [ICI 199,441] | – | – | Full agonist | Partial agonist (a ligand whose DMR amplitude was smaller the mean-2σ of its positive control and greater than 50 pm was considered to be a partial agonist) | Full agonist | 10.27 | 300±23 pm | – | – | – | – | –
(8-Naphthalen-1-ylmethyl-4-oxo-1-phenyl-1,3,8-triaza-spiro[4.5]-dec-3-yl)-acetic acid methyl ester | – | – | Partial agonist (a ligand whose DMR amplitude was smaller the mean-2σ of its positive control and greater than 50 pm was considered to be a partial agonist) | Partial agonist (a ligand whose DMR amplitude was smaller the mean-2σ of its positive control and greater than 50 pm was considered to be a partial agonist) | Partial agonist (a ligand whose DMR amplitude was smaller the mean-2σ of its positive control and greater than 50 pm was considered to be a partial agonist) | 6.39 | – | insensitive | suppressed | insensitive | insensitive | 6.85
